Sampled rows, rich in hits. Any-hit rate of the full collection: about 16%.
miR-21 FLuc: raises the signal of a miR-21 reporter; HeLa miR-21 FLuc reporter, luciferase, 48 h; Potency, µM (top dose mostly 38.3 µM); AID 2288; 340,000 tested, under 10 active; active = well fitted rising curve with a large enough effect; inconclusive = small, poorly fitted or top-dose-only effect; inactive = no such curve, though single readings can be large or run the other way;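 note: miR-21 action dims this reporter so a rising signal means less miR-21 action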
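Using DMEM plus 10% FBS, HeLa miR-21-FLuc cells are incubated with test compounds (final up to about 40uM) for 48 hours; firefly luciferase signal is then imaged following reagent-mediated lysis.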
DT40 TDP1 no CPT: qHTS for Inhibitors of human tyrosyl-DNA phosphodiesterase 1 (TDP1): qHTS in cells in absence of CPT. Potency, µM (series often up to 46.2 µM), most hits filed as inhibitors. actives 15% (n = 420,000). DT40 Tdp1-/- hTDP1 cells, no CPT, ATP luminescence, 48 h; also: nearly all actives have a fitted effect of over 55% in size
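Compound effects on proliferation are scored in DT40 Tdp1-/-;hTDP1 cells in the absence of CPT. ATP levels (CellTiter-Glo luminescence) are recorded after a ≥48 hr, 37 °C incubation.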
TDP1 cell CPT: growth inhibition of DT40 Tdp1-/-;hTDP1 cells with camptothecin (screen for TDP1 inhibitors) | chicken DT40 Tdp1-/-;hTDP1 cells + 20 nM CPT, ATP luminescence, 48 h | Potency, µM (highest dose often 46.2 µM), most hits filed as inhibitors | actives 12% (n = 420,000); also: nearly all actives have a fitted effect of over 55% in size
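Chicken DT40 Tdp1-/- cells stably complemented with human TDP1 were seeded at 400 cells/well in medium containing 20 nM camptothecin, exposed to pin-transferred compounds, and grown at 37 °C for at least 48 hr. Viability was read as ATP luminescence.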
TDP1 block: TDP1 (human) enzyme inhibition; Q9NUW8; recombinant TDP1, AlphaScreen DNA substrate cleavage; Potency, µM (series often up to 130 µM), hits mostly inhibitors; actives 0.28% (n = 350,000); AID 485290; also: nearly all actives have a fitted effect of over 40% in size
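AlphaScreen read-out: signal falls as enzyme removes the 3' tyrosine-FITC from a 5'-biotinylated DNA oligo (15 nM, 5 min, RT). Enzyme was E. coli-made recombinant Tdp1 at 1 nM, exposed to compound for 15 min beforehand; beads 10 ug/ml, 10 min.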
uPA generation: cell surface uPA generation inhibition; AID 540303; actives 0.31% (n = 330,000); Potency, µM (highest dose often 38.3 µM), usual class: inhibitors; cell surface uPA generation assay, qHTS; active = well fitted inhibition curve with a large enough effect; inconclusive = small, poorly fitted or top-dose-only effect; inactive = no such curve, though single readings can be large or run the other way; tested in mouse RAW 264.7 cells; also: nearly all actives have a fitted effect of over 55% in size
Of the large screens only hits and unclear results are named; the others gave an inactive call. Unless noted, calls follow the shape of the dose curve; as a rule, active = well fitted curve in the direction sought with a large enough effect; inconclusive = small, poorly fitted or top-dose-only effect, or another doubt; inactive = no such curve, though single readings can be large; an effect the other way counts as inactive or inconclusive.

CC(=O)NCCn1c(SCC(=O)c2ccccc2)nc2ccccc2c1=O	DT40 TDP1 no CPT inconclusive, TDP1 cell CPT inconclusive
CC(=O)NCCn1c(SCc2ccc(C)cc2C)nc2ccccc2c1=O	DT40 TDP1 no CPT 8.2µM, TDP1 cell CPT 10.3µM
CC(=O)NCCn1c(SCc2ccccc2C)nc2ccccc2c1=O	DT40 TDP1 no CPT 16.4µM, TDP1 cell CPT inconclusive
COc1ccc2c(c1)CC(C(=O)Nc1cccc(C)c1C)CO2 (stereo unspecified)	none (no result: uPA generation)
CC(=O)Nc1ccc(Nc2ccc([N+](=O)[O-])cn2)cc1	DT40 TDP1 no CPT 9.2µM, TDP1 cell CPT inconclusive (no result: TDP1 block)
CC(=O)Nc1cccc(OCCCOc2ccc([N+](=O)[O-])cc2)c1	DT40 TDP1 no CPT 3.66µM, TDP1 cell CPT 13µM (no result: TDP1 block)
CC(=O)Nc1ccc(S(=O)(=O)NCCC(=O)OCc2ccc([N+](=O)[O-])cc2)cc1	DT40 TDP1 no CPT 16.4µM, TDP1 cell CPT 13µM
CC(=O)Nc1cccc(OCCOc2cccc([N+](=O)[O-])c2)c1	none (no result: miR-21 FLuc, TDP1 block)
CC(=O)Nc1ccc(OS(=O)(=O)c2ccc([N+](=O)[O-])cc2)cc1	DT40 TDP1 no CPT 16.4µM, TDP1 cell CPT 18.4µM, uPA generation inconclusive
O=[N+]([O-])c1ccc(Nc2ccc(F)cc2)nc1	DT40 TDP1 no CPT inconclusive, TDP1 cell CPT inconclusive
CC(=O)Nc1ccc(OS(=O)(=O)c2ccc(Cl)cc2)cc1	none
COC(=O)c1cc(OC)c(OC)cc1NC(=O)CSCc1c(C)noc1C	DT40 TDP1 no CPT inconclusive (no result: miR-21 FLuc)
CC1(C(=O)NS(=O)(=O)c2cccc(F)c2)CCN1C(=O)c1cccc(F)c1 (stereo unspecified)	none (no result: miR-21 FLuc, TDP1 block, uPA generation)
CC(=O)c1ccc(NC(=O)Nc2ccc([N+](=O)[O-])cc2)cc1	none
O=C(Nc1ccc(Oc2ccc(NC(=O)Nc3ccc([N+](=O)[O-])cc3)cc2)cc1)Nc1ccc([N+](=O)[O-])cc1	DT40 TDP1 no CPT 2.06µM, TDP1 cell CPT 2.31µM
CC(=O)Nc1ccc(OS(=O)(=O)c2cc(Cl)ccc2C)cc1	DT40 TDP1 no CPT 14.6µM, TDP1 cell CPT 20.6µM
Cc1noc(C)c1C(=O)OCC(=O)Nc1cccc(F)c1	none (no result: miR-21 FLuc, TDP1 block, uPA generation)
O=C(N=C1SC2CS(=O)(=O)CC2N1c1cccc(Cl)c1)C1CCCO1 (stereo unspecified)	none
O=[N+]([O-])c1cc2oc3c(c2c(C=NCc2ccccc2)c1O)CCCC3	DT40 TDP1 no CPT 14.6µM, TDP1 cell CPT 8.2µM
CC(C)CN=Cc1c(O)c([N+](=O)[O-])cc2oc3c(c12)CCCC3	DT40 TDP1 no CPT inconclusive, TDP1 cell CPT inconclusive
Cc1cccc(C)c1N1CC(c2nc3ccccc3n2CC(=O)OC(C)C)CC1=O (stereo unspecified)	DT40 TDP1 no CPT 16.4µM, TDP1 cell CPT inconclusive (no result: uPA generation)
CCOc1ccccc1N1CC(c2nc3ccccc3n2CCOc2ccccc2)CC1=O (stereo unspecified)	none (no result: uPA generation)
Cc1ccccc1N1CC(c2nc3ccccc3n2CCC2CCCCC2)CC1=O (stereo unspecified)	DT40 TDP1 no CPT 10.3µM, TDP1 cell CPT 13µM (no result: uPA generation)
CCOc1ccccc1N1CC(c2nc3ccccc3n2CCCCOc2ccccc2)CC1=O (stereo unspecified)	none (no result: uPA generation)
Cc1cccc(N2CC(c3nc4ccccc4n3CCC3CCCCC3)CC2=O)c1 (stereo unspecified)	DT40 TDP1 no CPT 18.4µM, TDP1 cell CPT inconclusive (no result: uPA generation)
CCc1ccccc1N1CC(c2nc3ccccc3n2CCC2CCCCC2)CC1=O (stereo unspecified)	miR-21 FLuc inconclusive, DT40 TDP1 no CPT 5.17µM, TDP1 cell CPT 5.8µM (no result: uPA generation)
Cc1ccccc1N1CC(c2nc3ccccc3n2Cc2ccc(Br)cc2)CC1=O (stereo unspecified)	DT40 TDP1 no CPT 16.4µM, TDP1 cell CPT inconclusive (no result: uPA generation)
COc1cc(C(=O)O[C@H]2C/C(C)=C/CC[C@]3(C)O[C@@H]3C(O)C2C(C)C)cc(OC)c1OC (stereo partly specified)	DT40 TDP1 no CPT inconclusive, TDP1 cell CPT inconclusive (no result: TDP1 block)
CCOC(=O)N1CCN(C(=O)CN2C(=O)COc3ccc(S(=O)(=O)N4CCOCC4)cc32)CC1	none
COc1cc(NC(=O)CSCc2ccc(Cl)cc2Cl)c(C(=O)O)cc1OC	none
CN1CCN(c2nc3c(c(=O)[nH]c(=O)n3C)n2CCOc2ccccc2)CC1	DT40 TDP1 no CPT inconclusive, TDP1 cell CPT inconclusive
Cn1c(=O)[nH]c(=O)c2c1nc(N1CCCCCC1)n2CCOc1ccccc1	DT40 TDP1 no CPT 23.1µM
Cc1ccc(Cn2c(N3CCCCCC3)nc3c2c(=O)[nH]c(=O)n3C)cc1	none
CN(Cc1ccccc1)c1nc2c(c(=O)[nH]c(=O)n2C)n1CCOc1ccccc1	DT40 TDP1 no CPT 16.4µM, TDP1 cell CPT inconclusive
Cn1c(=O)[nH]c(=O)c2c1nc(N1CCCCCC1)n2Cc1cccc2ccccc12	DT40 TDP1 no CPT 16.4µM
Cc1csc(SCCn2c(N3CCN(c4ccccc4)CC3)nc3c2c(=O)[nH]c(=O)n3C)n1	DT40 TDP1 no CPT 25.9µM, TDP1 cell CPT 16.4µM
Cn1c(N2CCCCC2)nc2c1c(=O)[nH]c(=O)n2C	none
Cn1c(N2CCN(C(c3ccccc3)c3ccccc3)CC2)nc2c1c(=O)[nH]c(=O)n2C	DT40 TDP1 no CPT 18.4µM, TDP1 cell CPT 20.6µM (no result: TDP1 block)
Cn1c(=O)[nH]c(=O)c2c1nc(NCCO)n2CCOc1ccccc1	TDP1 cell CPT inconclusive (no result: TDP1 block)
CCC(C)Nc1nc2c(c(=O)[nH]c(=O)n2C)n1CCOc1ccccc1 (stereo unspecified)	DT40 TDP1 no CPT inconclusive, TDP1 cell CPT 20.6µM (no result: TDP1 block)
Cn1c(=O)[nH]c(=O)c2c1nc(N1CCNCC1)n2Cc1ccccc1Cl	none (no result: TDP1 block)
CC1CCCN(c2nc3c(c(=O)[nH]c(=O)n3C)n2Cc2ccccc2Cl)C1 (stereo unspecified)	DT40 TDP1 no CPT inconclusive, TDP1 cell CPT 14.6µM
O=C(NCCCN1CCOCC1)c1[nH]c(C(F)(F)F)nc1-c1ccccc1	none (no result: miR-21 FLuc, TDP1 block, uPA generation)
COc1ccc(C(C#N)CCC2OCCO2)cc1OC (stereo unspecified)	none (no result: miR-21 FLuc)
COc1ccccc1OC(=O)C1CC(=O)N(c2ccc(Cl)cc2)C1 (stereo unspecified)	none (no result: uPA generation)
Cc1ccc(CC(CC(=O)O)C(=O)Nc2ccc(Cl)cc2)cc1 (stereo unspecified)	none
CCOc1ccccc1NC(=O)Cn1nnc(C(=O)NCc2ccc3c(c2)OCO3)c1N	DT40 TDP1 no CPT 2.59µM, TDP1 cell CPT 4.11µM, uPA generation inconclusive
CCOc1ccccc1NC(=O)Cn1nnc(C(=O)NCc2ccco2)c1N	DT40 TDP1 no CPT 0.0231µM, TDP1 cell CPT 0.0092µM
CCCn1nc(C(=O)OCC(=O)Nc2cccc(S(N)(=O)=O)c2)c2ccccc2c1=O	none
COc1ccc(CCNC(=O)CN(C)S(=O)(=O)c2cccs2)cc1	none (no result: miR-21 FLuc)
CCNC(=S)NNC(=O)c1cc(-c2ccc(OCC)cc2)nc2ccccc12	miR-21 FLuc inconclusive, DT40 TDP1 no CPT 4.47µM, TDP1 cell CPT 5.01µM (no result: uPA generation)
